ChEMBL document CHEMBL4038300, “Return of D4 Dopamine Receptor Antagonists in Drug Discovery” (J Med Chem, 2017)

Molecular target: Sigma non-opioid intracellular receptor 1 (Homo sapiens, UniProt Q99720)
Assay: Inhibition of sigma1 receptor (unknown origin)

`CC(C)Oc1cccnc1N(C)C1CCN(Cc2ccc(I)cc2)CC1` was tested, and the Ki was 0.0821 µM.
